From patent publication US20090203718A1, “CANCER TREATMENT METHOD” (SmithKline Beecham (Cork) Ltd., priority 2006, published 2009)

How the values were obtained:
Format in all cases: cell-based, human
Settings in all cases: agent alone, 24 h
[1] = tested on: A549 cells; assay: Cell proliferation, BrdU ELISA and Celltiter Glo (FIG. 1)
[2] = tested on: Colo205 cells; assay: Cell proliferation, BrdU ELISA and Celltiter Glo (FIG. 2)
Protocol: (§1) A549 cells were grown in RPMI-1640 supplemented with 25 mM HEPES, 10 mM glutamine and 10% fetal bovine serum and maintained at 37° C. and 5% CO2 in a humid incubator. Colo205 and MDA-MB-468 cells were grown in DMEM supplemented with 25 mM HEPES, 10 mM glutamine, 4.5 g/L d-glucose, and 10% fetal bovine serum. Assays were performed in 96 well microtiter plates with optimum seeding densities for each cell line.
(§2) Cell proliferation was measured using the Celltiter Glo® Luminescent Cell Viability Assay available from Promega Corporation and the Roche BrdU Cell Proliferation ELISA assay.
(§3) Cell death was measured using the Roche Cell Death ELISA^Plus kit and Promega Apo-ONE™ Homogeneous Caspase-3/7 Assay. Total cell number was measured using the Celltiter Glo® Luminescent Cell Viability Assay and cell proliferation was measured with the Roche BrdU Cell Proliferation ELISA assay.

[3] = tested on: MDA-MB-468 cells; assay: Cell proliferation, BrdU ELISA and Celltiter Glo (FIG. 3)
Protocol: as §1, §2, §3

Measured: cell proliferation

CS(=O)(=O)CCNCc1ccc(-c2ccc3ncnc(Nc4ccc(OCc5cccc(F)c5)c(Cl)c4)c3c2)o1 [GW572016, N-{3-Chloro-4-[(3-fluorobenzyl)oxy]phenyl}-6-[5-({[2-(methanesulphonyl)ethyl]amino}methyl)-2-furyl]-4-quinazolinamine ditosylate monohydrate]
decreased cell proliferation: all assays above
